# Measured values as given in patent US20220089592A1, “IMIDAZO[1,2-A]PYRIDINYL DERIVATIVES AS IRAK4 INHIBITORS” (priority 2019, published 2022).
# Chains of the proteins cited; added tags and fusions are not shown.
# UniProt Q9NWZ3, whole entry: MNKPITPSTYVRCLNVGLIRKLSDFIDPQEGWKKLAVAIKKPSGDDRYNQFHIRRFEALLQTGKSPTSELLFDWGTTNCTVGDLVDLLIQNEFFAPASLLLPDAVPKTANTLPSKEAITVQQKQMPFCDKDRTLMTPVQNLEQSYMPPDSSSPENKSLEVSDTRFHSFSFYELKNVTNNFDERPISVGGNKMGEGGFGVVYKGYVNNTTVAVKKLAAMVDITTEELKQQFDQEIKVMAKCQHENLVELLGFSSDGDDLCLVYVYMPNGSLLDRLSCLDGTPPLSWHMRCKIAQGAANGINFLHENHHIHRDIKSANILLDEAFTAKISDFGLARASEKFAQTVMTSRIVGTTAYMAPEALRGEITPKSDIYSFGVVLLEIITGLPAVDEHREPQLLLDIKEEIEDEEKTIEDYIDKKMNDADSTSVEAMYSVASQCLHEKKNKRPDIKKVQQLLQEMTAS
# Assays:
# IRAK4 [1] = biological target: T1, IRAK4 (Homo sapiens, UniProt Q9NWZ3); test: 2-hour 1 mM ATP IRAK4 Biochemical assay (as above, but with 100 pM IRAK4 and 1 mM ATP); details: IRAK4 MSD BIOCHEMICAL (1 mM ATP) IC50 (μM), 100 pM IRAK4, 2 hours
# IRAK4 [2] = biological target: T1, IRAK4; test: 2-hour 10 μM ATP Biochemical Assay (MesoScale Detection format; IRAK4 phosphorylation of biotin labeled IRAK1 activation loop peptide); details: IRAK4 MSD BIOCHEMICAL (10 μM ATP) IC50 (μM), 1 nM IRAK4, 2 hours
compound,measurement,setting,value
"COc1cc(NC(=O)c2cccc(C(F)(F)F)n2)cn2cc(C3CCOCC3)nc12 [Example 105, N-(8-methoxy-2-tetrahydropyran-4-yl-imidazo[1,2-a]pyridin-6-yl)-6-(trifluoromethyl)picolinamide]",IC50,IRAK4 [1],0.015 µM
same,IC50,IRAK4 [2],0.006 µM
